Values of other authors, collected in patent US20170007618A1, “SEROTONIN 2C RECEPTOR ANTAGONISTS TO PREVENT AND TREAT STRESS-RELATED TRAUMA DISORDERS” (Massachusetts Institute of Technology, priority 2015, published 2017).

Amino acid sequences for entries named in this document (tags omitted). Residues count along the entry.
UniProt P28335, 33-458: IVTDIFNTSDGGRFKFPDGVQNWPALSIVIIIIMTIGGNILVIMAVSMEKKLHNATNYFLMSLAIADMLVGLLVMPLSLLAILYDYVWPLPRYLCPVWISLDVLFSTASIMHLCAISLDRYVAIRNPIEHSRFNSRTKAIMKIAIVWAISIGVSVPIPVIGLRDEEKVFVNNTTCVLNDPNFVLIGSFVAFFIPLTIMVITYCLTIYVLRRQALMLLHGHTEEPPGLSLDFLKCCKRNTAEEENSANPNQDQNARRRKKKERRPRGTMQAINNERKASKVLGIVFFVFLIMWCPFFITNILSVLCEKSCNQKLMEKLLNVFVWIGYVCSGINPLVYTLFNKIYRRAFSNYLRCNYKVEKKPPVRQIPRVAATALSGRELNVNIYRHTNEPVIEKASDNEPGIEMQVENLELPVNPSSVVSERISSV

Molecular target: cloned human 5-HT2C receptor (Homo sapiens, UniProt P28335)

Q: For `Cn1ccc2cc3c(cc21)CCN3C(=O)Nc1cccnc1` [SB 206553, 5-methyl-1-[(3-pyridylcarba-moyl)-1,2,3,5-tetrahydropyrrolo(2,3-f)indole]], which pKi is on record?
A: 7.9
